Experimental data from patent US20100196310A1, “METHODS OF TREATING CANCER BY ADMINISTERING HUMAN IL-18 COMBINATIONS” (SMITHKLINE BEECHAM CORPORATION, priority 2007, published 2010).

Test system: MOPC315 murine plasmocytoma transfected with ErbB2 (HER2)
Test: mIL-18 and HERCEPTIN combination, MOPC315 plasmocytoma, study MOPC.D3J03
Type: in vivo, SCID mice
Conditions: HERCEPTIN as monotherapy
Description: Both the MOPC315.D3j005 and MOPC.D3j03 studies were analyzed to evaluate effect of murine IL-18 (SEQ ID NO:2) combination therapy with HERCEPTIN® on the growth of murine plasmocytoma. For this experiment we had to transfect MoPC315 cells with ErbB2 (HER2). For transfection, we used 1.5 ug ErbB2 expression vector (BioCat-108912-pcdna3.1(−) ErbB2) in a 6-well dish, as described using liposomal transfection with Lipofectamine™ and Optimem™ media from Gibco. Selective pressure neomycin (450 ug/ml G418 Sigma G6816) was added to the cultures after 2 days. Initial positive populations were selected by fluorescent microscopic inspection of in situ cultures stained with Alexafluor488 labeled HERCEPTIN® monoclonal antibody and cloned by limiting dilution (206434 p 70-72). D3 ErbB2 expression tested with Alexafluor488 labeled HERCEPTIN® flow cytometry. MOPC.D3 cell line was selected and used for evaluation of HERCEPTIN® and IL-18 anti-tumor efficacy.
This study was identical to the MOPC315.D3J005 study above (Example 4.a.) with the exception that the therapy started before the tumors became macroscopically apparent, on day 7 post-implantation. In addition, the maximal dose of HERCEPTIN was 100 μg/mouse, and the minimal dose was 25 μg/mouse in this study.
The data are expressed as mean+/−SD (FIG. 17), and as median+/−range (FIG. 18). […]

“HERCEPTIN®: an anti-Her2/neu receptor antibody” was tested, and the anti-tumor activity was “minimal activity”.
